Results reported in publication PMC12669278, “VDAC1-interacting proteins: binding site mapping and their derived peptides induce apoptosis and multifaceted cellular effects” (Apoptosis, 2025).
Like-named read-outs stand apart in the source and are kept apart here.

Legend:
U-87MG cells [1] = format: cell-based, human; settings: 24 h
Procedure: U-87MG (human glioblastoma; epithelial cells, ATCC: HTP-14) and PC-3 (human prostate adenocarcinoma; epithelial cells, ATCC: CRL-1435) were purchased from ATCC (Manassas, VA, USA). The cells were cultured in a humidified sterile incubator at 37 °C, with 5% CO2 in recommended growth medium supplemented with 10% FBS, 100 U/ml penicillin, and 100 μg/ml streptomycin. Mycoplasma contamination was routinely evaluated on cell lines. The cell lines were also authenticated by routine monitoring of cell morphology and proliferation and cultured up to 15 passages. Cells were seeded at a density of 1 × 10^5 cells per well in 12-well plates for apoptotic cell death analyses and at 2 × 10^5 cells per well in 6-well plates for protein and RNA extractions. After seeding, cells were incubated for 24 h at 37 °C in a humidified atmosphere containing 5% CO₂ in serum-free medium, in the absence or presence of the indicated peptide. Following treatment, cells were collected, centrifuged at 1500 × g for 5 min, washed with phosphate-buffered saline (PBS), and processed for the designated assays. Cells were analyzed for cell survival using an XTT assay, according to the manufacturer’s instructions. Briefly, the activation solution was added to the XTT solution, which is converted to orange formazan by mitochondrial dehydrogenases in live cells.

U-87MG cells [2] = format: cell-based; settings: 24 h, serum-free medium, PI staining, read-out: IC50, cell death

Row | IC50 (U-87MG cells [1]) [µM] | SMILES | IC50 (U-87MG cells [1]; U-87MG, serum-free medium, 0-100 μM, read-out: IC50, cell viability analyzed by XTT) [µM] | IC50 (U-87MG cells [2]) [µM]
1 |  | CC[C@H](C)[C@H](NC(=O)[C@H](CCC(N)=O)NC(=O)[C@H](CC(C)C)NC(=O)CNC(=O)[C@@H]1CCCN1C(=O)[C@H](CCC(=O)O)NC(=O)[C@H](CCCCN)NC(=O)CNC(=O)[C@H](C)NC(=O)[C@H](CCCCN)NC(=O)[C@H](CC(C)C)NC(=O)[C@H](Cc1ccccc1)NC(=O)[C@H](CCC(=O)O)NC(=O)[C@@H]1CCCN1C(=O)[C@H](Cc1c[nH]cn1)NC(=O)[C@H](CCC(=O)O)NC(=O)[C@@H](NC(=O)[C@@H](NC(=O)[C@@H](N)CCSC)C(C)C)C(C)C)C(=O)N[C@@H](Cc1c[nH]c2ccccc12)C(=O)N[C@@H](CCCNC(=N)N)C(=O)N[C@H](C(=O)N[C@@H](CCC(=O)O)C(=O)N[C@@H](CCCCN)C(=O)N[C@@H](Cc1ccccc1)C(=O)N[C@@H](CCCNC(=N)N)C(=O)N[C@@H](CCC(N)=O)C(=O)N[C@H](C(=O)N[C@@H](CCCCN)C(=O)N[C@H](C(=O)N[C@@H](Cc1c[nH]c2ccccc12)C(=O)N[C@@H](Cc1ccccc1)C(=O)N[C@@H](CCC(N)=O)C(=O)N[C@@H](CC(N)=O)C(=O)N[C@@H](CCCNC(=N)N)C(=O)N[C@@H](CCCNC(=N)N)C(=O)N[C@@H](CCSC)C(=O)N[C@@H](CCCCN)C(=O)N[C@@H](Cc1c[nH]c2ccccc12)C(=O)N[C@@H](CCCCN)C(=O)N[C@@H](CCCCN)C(=O)O)[C@@H](C)CC)[C@@H](C)CC)C(C)C [2G8-Antp] | > 100 | 8
2 | > 25 | CSCC[C@H](NC(=O)[C@H](Cc1c[nH]cn1)NC(=O)[C@H](C)NC(=O)[C@H](CCSC)NC(=O)[C@H](CC(C)C)NC(=O)[C@H](CC(=O)O)NC(=O)[C@@H](NC(=O)[C@@H](NC(=O)[C@H](CCCNC(=N)N)NC(=O)[C@H](CC(N)=O)NC(=O)[C@H](CO)NC(=O)[C@H](Cc1ccc(O)cc1)NC(=O)CNC(=O)[C@H](Cc1ccccc1)NC(=O)[C@H](CCC(=O)O)NC(=O)[C@@H](N)CC(N)=O)C(C)C)C(C)C)C(=O)N[C@@H](C)C(=O)N[C@@H](CO)C(=O)N[C@@H](CCCCN)C(=O)N[C@@H](CCC(=O)O)C(=O)N[C@@H](CCCNC(=N)N)C(=O)N[C@H](CCCNC(=N)N)C(=O)N[C@@H](CCCNC(=N)N)C(=O)N[C@@H](CCCCN)C(=O)O [2D1-Nuc] |  | 
3 | > 100 | CC[C@H](C)[C@H](NC(=O)[C@H](CCC(N)=O)NC(=O)[C@H](CC(C)C)NC(=O)CNC(=O)[C@@H]1CCCN1C(=O)[C@H](CCC(=O)O)NC(=O)[C@H](CCCCN)NC(=O)CNC(=O)[C@H](C)NC(=O)[C@H](CCCCN)NC(=O)[C@H](CC(C)C)NC(=O)[C@H](Cc1ccccc1)NC(=O)[C@H](CCC(=O)O)NC(=O)[C@@H]1CCCN1C(=O)[C@H](Cc1c[nH]cn1)NC(=O)[C@H](CCC(=O)O)NC(=O)[C@@H](NC(=O)[C@@H](NC(=O)[C@H](CCSC)NC(=O)[C@H](CCCCN)NC(=O)[C@H](CCCCN)NC(=O)[C@H](Cc1c[nH]c2ccccc12)NC(=O)[C@H](CCCCN)NC(=O)[C@H](CCSC)NC(=O)[C@H](CCCNC(=N)N)NC(=O)[C@H](CCCNC(=N)N)NC(=O)[C@H](CC(N)=O)NC(=O)[C@H](CCC(N)=O)NC(=O)[C@H](Cc1ccccc1)NC(=O)[C@H](Cc1c[nH]c2ccccc12)NC(=O)[C@@H](NC(=O)[C@H](CCCCN)NC(=O)[C@@H](NC(=O)[C@H](CCC(N)=O)NC(=O)[C@@H](N)CCCNC(=N)N)[C@@H](C)CC)[C@@H](C)CC)C(C)C)C(C)C)C(=O)N[C@@H](Cc1c[nH]c2ccccc12)C(=O)N[C@@H](CCCNC(=N)N)C(=O)N[C@H](C(=O)N[C@@H](CCC(=O)O)C(=O)N[C@@H](CCCCN)C(=O)N[C@@H](Cc1ccccc1)C(=O)O)C(C)C [Antp-2G8] |  | 
